## Yeast mating assay 2: variants of the scFv Ab-95

The target is the same throughout: PDVDLGDISGINAS, from the HR2 region of SARS-CoV-2 spike.

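The starting antibody came from a phage panning campaign against this peptide. AAYL52 was designed without a model: most single CDR substitutions and a random sample of double and triple ones. In AlphaSeq, yeast of one mating type display the scFv and yeast of the other type display the target. Mating (16 h, 30 °C) was followed by selection of diploids and sequencing of their barcodes. Scores were corrected for input abundance and mapped to Kd with protein pairs of known affinity run in the same pool. The assay was run in three technical replicates.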

Ab-95 is the parent antibody, in scFv form: VH, then three GGGGS repeats, then VL. The heavy chain is unchanged in all variants.
VH: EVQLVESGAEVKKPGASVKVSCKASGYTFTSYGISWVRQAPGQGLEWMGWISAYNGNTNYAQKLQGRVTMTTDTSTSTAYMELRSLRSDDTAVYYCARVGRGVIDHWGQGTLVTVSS
VL: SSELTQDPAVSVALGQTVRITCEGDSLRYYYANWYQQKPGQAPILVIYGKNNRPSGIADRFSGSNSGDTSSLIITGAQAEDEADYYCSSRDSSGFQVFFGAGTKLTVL

Positions count from residue 1 of the parent VL; N33K puts K in place of N.
All variants listed here change N51 of the VL, counted from its first residue.
Values are apparent Kd, the geometric mean of the replicates that gave a signal; lower means stronger binding.
A pair that was not seen in any replicate is written "not detected"; this usually means weak binding, but a binder can also be missed.
Parent in this assay: reference entry 200 nM, copy in this library 180 nM.

| changes | Kd (apparent) | replicates with signal | signal with controls |
|---|---|---|---|
| N33K/N51V/D91V | 5.9 µM | 2 of 3 | 7 of 9 |
| G49N/N51P/F95V | 21 µM | 2 of 3 | 3 of 9 |
| N51F/S89H/S92F | 11 µM | 2 of 3 | 0 of 9 |
| N51K/S93E/V97Q | 15 µM | 2 of 3 | 1 of 9 |
| D25F/N33D/N51R | 17 µM | 1 of 3 | 3 of 9 |
| E23M/R28Q/N51R | 390 µM | 1 of 3 | 2 of 9 |
| E23R/N51W | 720 nM | 3 of 3 | 1 of 9 |
| N33P/N51P | 5.4 µM | 1 of 3 | 1 of 9 |
| S26C/N51Y/Q96G | 10 µM | 1 of 3 | 2 of 9 |
| G24I/N51I/R53D | not detected | 0 of 3 | 1 of 9 |
| L27V/N51D/P54S | 7.3 µM | 3 of 3 | 2 of 9 |
| N33Q/N51M/F98T | 3.4 µM | 1 of 3 | 2 of 9 |
| N51I/R90L/S92A | 11 µM | 2 of 3 | 1 of 9 |
| N51T/S93A/Q96V | 9.8 µM | 1 of 3 | 3 of 9 |
| N51W/S55E/D91R | 32 µM | 1 of 3 | 5 of 9 |
| S26G/N51M/Q96D | 270 nM | 3 of 3 | 1 of 9 |
| G49C/N51R/F98R | 35 µM | 3 of 3 | 4 of 9 |
| N51H/S55W | 1.4 µM | 3 of 3 | 2 of 9 |
| Y31A/A32W/N51S | 27 µM | 3 of 3 | 4 of 9 |
| L27W/N51D/F95W | 13 µM | 1 of 3 | 4 of 9 |
| N51D/S88N/G94K | 480 nM | 3 of 3 | 2 of 9 |
| N51I/V97K | not detected | 0 of 3 | 1 of 9 |
| E23R/N51Q/S55L | 280 nM | 3 of 3 | 1 of 9 |
| G49A/N51D/N52R | 1.5 µM | 3 of 3 | 6 of 9 |
| N33I/N51V/N52S | 25 µM | 1 of 3 | 3 of 9 |
| N51T/F95S | 400 nM | 3 of 3 | 4 of 9 |
| N51S | 530 nM | 3 of 3 | 4 of 9 |
| N33W/N51I | 3.6 µM | 3 of 3 | 5 of 9 |
| Y31S/N51G | 14 nM | 3 of 3 | 4 of 9 |
| D25R/N51M/D91C | 4.0 µM | 3 of 3 | 5 of 9 |
| G24M/S26E/N51S | 580 nM | 3 of 3 | 4 of 9 |
| Y31Q/N51C/Q96I | 610 nM | 3 of 3 | 5 of 9 |
| N51M/N52H | 54 µM | 1 of 3 | 1 of 9 |
| G24A/L27K/N51A | 20 µM | 1 of 3 | 2 of 9 |
| Y30E/N33M/N51A | 2.1 µM | 3 of 3 | 3 of 9 |
| Y30A/N51K/F95D | 77 nM | 3 of 3 | 2 of 9 |
| Y30C/N51E/S89T | 1.3 µM | 3 of 3 | 3 of 9 |
| G24M/R28P/N51F | 3.0 µM | 1 of 3 | 4 of 9 |
| R28S/K50G/N51K | 140 nM | 3 of 3 | 3 of 9 |
| E23H/N33T/N51I | 4.4 µM | 3 of 3 | 2 of 9 |
| Y30H/N51G/Q96N | 10 nM | 3 of 3 | 6 of 9 |
| N51H/S55K/F98L | not detected | 0 of 3 | 0 of 9 |
| N51C/F98S | 21 µM | 1 of 3 | 1 of 9 |
| N51W/S55M/G94W | not detected | 0 of 3 | 1 of 9 |
| G49W/N51K | not detected | 0 of 3 | 3 of 9 |
| N33Q/N51P/G94C | 89 µM | 2 of 3 | 5 of 9 |
| N33H/N51K/S89G | 41 µM | 2 of 3 | 3 of 9 |
| A32C/N51D/D91Q | 11 µM | 2 of 3 | 1 of 9 |
| N51I/N52G/V97Y | not detected | 0 of 3 | 1 of 9 |
| D25S/Y30M/N51A | 120 nM | 3 of 3 | 3 of 9 |

For reference, 4 entries of the list once more:

{"changes": "S26C/N51Y/Q96G", "Kd (apparent)": "10 µM", "replicates with signal": "1 of 3", "signal with controls": "2 of 9"}
{"changes": "N51W/S55E/D91R", "Kd (apparent)": "32 µM", "replicates with signal": "1 of 3", "signal with controls": "5 of 9"}
{"changes": "G49C/N51R/F98R", "Kd (apparent)": "35 µM", "replicates with signal": "3 of 3", "signal with controls": "4 of 9"}
{"changes": "N33K/N51V/D91V", "Kd (apparent)": "5.9 µM", "replicates with signal": "2 of 3", "signal with controls": "7 of 9"}

Background: pairings of library AAYL52 with three empty control strains gave a value in 28% of cases (median 8.2 µM, 5th percentile 800 nM). Values in that range, when seen in few replicates, are hard to tell from nonspecific mating. Also given: how often the same scFv was detected with the empty control strains.

Source: Engelhart et al. 2022 (doi:10.1038/s41597-022-01779-4), MIT Lincoln Laboratory and A-Alpha Bio; data file from the FLAb repository.